Source: PubChem
Rows were chosen to be rich in hits. Some 2.1% of all compounds tested hit in one or more screens of this group.
miR-122 sensor: miR-122 Renilla sensor signal increase in Huh7, primary screen, miR-122 inhibitor project, cell-based, single point, plate reader; activation (reporter increase), % at 12.5 µM; Huh7 miR-122 Renilla luciferase sensor, 48 h; neutral wells = 0, positive control = 100; 0.3% of 340,000 active;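 active = mean replicate activation score at least 90 and every replicate individually at or above 90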;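 note: higher luciferase means less miR-122 activity so hits act as miR-122 inhibitors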
MITF TRPM1 inh: inhibitors of MITF-dependent TRPM1 promoter reporter, primary screen, cell-based, SK-MEL-5, single point, luciferase | 0.83% of 330,000 active | inhibition, % at 12.5 µM | AID 488899, 2010 | SK-MEL-5 TRPM1 promoter luciferase, 24 h;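 active = mean inhibition across replicates of 60% or more, whatever share of single replicates reaches that level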
Yeast UUG start: modulators of yeast start codon fidelity, primary screen, whole organism, S. cerevisiae, single point, plate reader; S. cerevisiae UUG-firefly luciferase reporter, luminescence/redox ratio; activity score, % at 18.7 µM; actives 0.13% (n = 350,000); AID 602363, 2012;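 active = replicate mean at a twofold rise or more, about +100% in these data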;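 also: firefly luciferase made from a UUG start codon reports start codon fidelity; reporter light over untreated wells divided by growth signal over untreated wells; some hits fall short of that in this replicate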
Wnt act: Wnt/beta-catenin pathway activators, primary screen, cell-based, plate reader, single point; Wnt/beta-catenin reporter cell assay, activator; 1.2% of 300,000 active; AID 743398, 2014; activation, % at 9.35 µM; in the data active = activation above about 30%, passing the limit was not always enough;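 note: 0% = neutral control wells and 100% = positive control wells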
MITF act: activators of MITF-driven TRPM1 promoter reporter, primary screen, cell-based, SK-MEL-5, luciferase, single point; SK-MEL-5 TRPM1-promoter luciferase, 24 h; % of positive control, neutral wells = 0; activation, % at 12.5 µM; 0.75% of 300,000 active; AID 588334, 2011;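 active = mean activation of at least 80% with every replicate also reaching 80%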;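 note: 0% = neutral control wells and 100% = parthenolide positive control wells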
PGC1a acetyl inh: inhibitors of PGC1a acetylation signal, primary screen, cell-based, U2OS, AlphaScreen, inhibitor mode. AlphaScreen anti-acetyl-lysine; with virally co-expressed GCN5 acetyltransferase. inhibition, % at 15.6 µM. 0.17% of 350,000 active;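 active = every replicate shows inhibition of at least 40%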;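 note: 0% = neutral control wells and 100% = positive control wells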
Starred values were filed as active, the others as inactive; x = not tested or not shown; [ ] = remark or other dose.

| SMILES | miR-122 sensor | MITF TRPM1 inh | Yeast UUG start | Wnt act | MITF act | PGC1a acetyl inh |
| --- | --- | --- | --- | --- | --- | --- |
| COc1ccc(C)c2sc(N(CCCN(C)C)C(=O)c3ccc(S(=O)(=O)N4CCc5ccccc5C4)cc3)nc12 | -21 | 96* | -3 | 0 | -96 | 22 |
| CN(C)CCCN(C(=O)c1ccc(S(=O)(=O)N2CCc3ccccc3C2)cc1)c1nc2c(F)cc(F)cc2s1 | x | 35 | -8 | x | -35 | x |
| COc1cccc2sc(N(CCCN(C)C)C(=O)c3ccc(S(=O)(=O)N4CCc5ccccc5C4)cc3)nc12 | x | 47 | 14 | -4 | -47 | x |
| COc1cc2c3nnc(-c4ccc(F)cc4)c-3cn(Cc3ccccc3F)c2cc1OC | x | 92* | x | -12 | -91 | x |
| COc1cc2c3nnc(-c4ccccc4)c-3cn(Cc3ccccc3F)c2cc1OC | x | x | x | -17 | x | x |
| O=C1c2ccc3c4c(ccc(c24)C(=O)N1c1cccc(O)c1)C(=O)N(c1cccc(O)c1)C3=O | 0 | 100* | 3 | -10 | -99 | 18 |
| O=C(C[C@H]1CC[C@@H](NC(=O)c2cccc(F)c2)[C@H](CO)O1)NCc1ccc(Oc2ccccc2)cc1 | x | x | -8 | x | x | -3 |
| CC(=O)Nc1cccc(NC(=O)CSc2ncc(C(=O)Nc3ccccc3)c(=O)n2C)c1 | -1 | 67* | x | 0 | -66 | -14 |
| Cc1cccc(Nc2nnc(SCC(=O)NCC3CCCO3)s2)c1 (stereo unspecified) | 9 | 1 | -4 | 5 | -1 | x |
| CC(=O)c1cccc(NC(=O)CSc2ncc(C(=O)Nc3ccccc3)c(=O)n2C)c1 | x | 64* | -21 | -2 | -63 | x |

(next part)
| SMILES | miR-122 sensor | MITF TRPM1 inh | Yeast UUG start | Wnt act | MITF act | PGC1a acetyl inh |
| --- | --- | --- | --- | --- | --- | --- |
| Cn1c(SCC(=O)NCC2CCCO2)ncc(C(=O)Nc2ccc(Cl)cc2)c1=O (stereo unspecified) | 0 | 67* | -22 | 13 | -68 | 2 |
| CC(C)c1ccc(Nc2nnc(SCC(=O)NCC3CCCO3)s2)cc1 (stereo unspecified) | -1 | -33 | -13 | 47* | 37 | 4 |
| C[C@H](CO)N1C[C@H](C)[C@H](CN(C)Cc2ccncc2)Oc2c(NC(=O)Nc3ccc4c(c3)OCO4)cccc2C1=O | 9[16.7 µM] | x | -2 | x | x | 2 |
| CCCc1cc2c(=O)c(-c3ccc4c(c3)OCCO4)coc2cc1OS(C)(=O)=O | x | -49 | x | 8 | 59 | x |
| CCCc1cc2c(=O)c(-c3ccc4c(c3)OCCO4)coc2cc1OC(=O)c1ccco1 | 3 | -78 | -7 | x | 84* | 0 |
| CCc1cc2c(=O)c(-c3ccc4c(c3)OCCO4)coc2cc1OC(=O)c1ccco1 | -11 | -29 | -8 | 67* | x | 3 |
| CCCN(C)C[C@H]1Oc2ncc(C#CCN(C)C)cc2C(=O)N([C@H](C)CO)C[C@@H]1C | 6[16.7 µM] | x | 1 | x | x | -9 |
| COc1ccc(S(=O)(=O)Nc2ccc3c(c2)CC(=O)N([C@H](C)CO)C[C@@H](C)[C@@H](CN(C)Cc2ccc(Oc4ccccc4)cc2)O3)cc1 | -14[16.7 µM] | x | 5 | x | x | -7 |
| O=C(/C=C\c1ccc(-c2ccccc2)o1)c1ccccc1 | x | -33 | x | 37* | 33 | x |
| Cc1ccc(NC(=O)/C(C#N)=N/Nc2ccc(C(=O)O)cc2)c(C)c1 | 1 | 1 | -10 | 44* | 0 | 8 |

(cont.)
| SMILES | miR-122 sensor | MITF TRPM1 inh | Yeast UUG start | Wnt act | MITF act | PGC1a acetyl inh |
| --- | --- | --- | --- | --- | --- | --- |
| Cc1ccc2c(CN3CCC(C)CC3)cc(=O)oc2c1C | -8 | -88 | -13 | 4 | 93* | -4 |
| Cc1ccc(C(=O)N2CCc3ccccc3C2)cc1S(=O)(=O)N1CCOCC1 | 3 | 8 | 2 | 0 | -5 | x |
| Cc1ccccc1NS(=O)(=O)c1cc(C(=O)N2CCc3ccccc3C2)ccc1C | 177* | -9 | x | -1 | 4 | 3 |
| Cc1ccc(C(=O)N2CCCC2)cc1S(=O)(=O)Nc1ccccc1 | 25 | -2 | -4 | x | 1 | -20 |
| Cc1ccc(C(=O)NCCSC2CCCCC2)cc1S(=O)(=O)Nc1ccccc1 | 100* | 11 | x | 0 | -9 | -42 |
| CN(c1cccc(NC(=O)c2ccc(Cl)c(S(=O)(=O)Nc3ccccc3)c2)c1)S(C)(=O)=O | 197* | 14 | -16 | x | -10 | -1 |
| Cc1ccc(NS(=O)(=O)c2cc(C(=O)Nc3cccc([N+](=O)[O-])c3)ccc2C)cc1 | 131* | -5 | -11 | -7 | 5 | -9 |
| COc1cc2c(cc1O)C=[N+](Cc1cccc(OC(F)(F)F)c1)CC2 | x | x | 28 | x | x | x |
| Cc1ccc(C(=O)Nc2ccccc2C(=O)O)cc1S(=O)(=O)Nc1ccccc1 | 92* | -4 | -6 | 2 | x | 2 |
| CCN1[C@@H]2c3ccc(-c4ccncc4)c(=O)n3C[C@@H]2[C@@H](CO)[C@@H]1C(=O)NCCc1cn(C)cn1 | 3[16.7 µM] | x | x | x | x | x |

Entries listed so far printed as active in miR-122 sensor:
| SMILES | miR-122 sensor | MITF TRPM1 inh | Yeast UUG start | Wnt act | MITF act | PGC1a acetyl inh |
| --- | --- | --- | --- | --- | --- | --- |
| Cc1ccccc1NS(=O)(=O)c1cc(C(=O)N2CCc3ccccc3C2)ccc1C | 177* | -9 | x | -1 | 4 | 3 |
| Cc1ccc(C(=O)NCCSC2CCCCC2)cc1S(=O)(=O)Nc1ccccc1 | 100* | 11 | x | 0 | -9 | -42 |
| CN(c1cccc(NC(=O)c2ccc(Cl)c(S(=O)(=O)Nc3ccccc3)c2)c1)S(C)(=O)=O | 197* | 14 | -16 | x | -10 | -1 |
| Cc1ccc(NS(=O)(=O)c2cc(C(=O)Nc3cccc([N+](=O)[O-])c3)ccc2C)cc1 | 131* | -5 | -11 | -7 | 5 | -9 |
| Cc1ccc(C(=O)Nc2ccccc2C(=O)O)cc1S(=O)(=O)Nc1ccccc1 | 92* | -4 | -6 | 2 | x | 2 |

Carrying on.
| SMILES | miR-122 sensor | MITF TRPM1 inh | Yeast UUG start | Wnt act | MITF act | PGC1a acetyl inh |
| --- | --- | --- | --- | --- | --- | --- |
| Oc1ccc(-c2csc(Nc3ncccn3)n2)cc1O | x | -27 | x | 3 | 25 | 5 |
| Oc1ccc(-c2csc(Nc3ccc4c(c3)OCO4)n2)c(O)c1 | 2 | -49 | -26 | 46* | 54 | 5 |
| Oc1ccc(-c2csc(Nc3ncccn3)n2)c(O)c1 | 1 | -95 | x | 94* | 104* | 10 |
| C[C@H](CO)N1C[C@H](C)[C@H](CN(C)S(=O)(=O)c2ccccc2)Oc2ncc(-c3cccc(F)c3)cc2C1=O | 1[16.7 µM] | x | -3 | x | x | -10 |
| CCc1ccc(-c2nc(CSCC(=O)N3CCN(c4ccccn4)CC3)c(C)o2)cc1 | -16 | 64* | -7 | x | x | x |
| Cc1ccc(-c2nc(CSCC(=O)N3CCN(c4ccccn4)CC3)c(C)o2)cc1 | -5 | x | -2 | -6 | x | 3 |
| C[C@@H]1CN([C@H](C)CO)S(=O)(=O)c2ccc(C#CC3CC3)cc2O[C@@H]1CN(C)Cc1cncnc1 | 28[16.7 µM] | x | x | x | x | 10 |
| COc1ccccc1-c1cn(CC[C@@H]2CC[C@@H](NC(=O)Cc3ccccn3)[C@@H](CO)O2)nn1 | x | x | -2 | x | x | -5 |
| Cc1ccc(CC#N)c(-c2c(CC#N)ccc(C)c2C)c1C | -3 | x | -3 | -2 | x | -2 |
| Cc1ccc2c(c1C)-c1c(ccc(C)c1C)C(=O)C2=O | 22 | 108* | x | -10 | x | 37 |

More structures.
| SMILES | miR-122 sensor | MITF TRPM1 inh | Yeast UUG start | Wnt act | MITF act | PGC1a acetyl inh |
| --- | --- | --- | --- | --- | --- | --- |
| COc1cc(OC)nc(-n2ncc(Br)c(Br)c2=O)n1 | x | 93* | x | -13 | -92 | x |
| COC(=O)c1cnn(-c2nc(OC)cc(OC)n2)c1C | x | -12 | x | 1 | 9 | x |
| O=C(Cc1ccccc1)NNC(=O)Nc1cccc(Cl)c1 | 8 | -3 | -13 | x | 1 | 11 |
| O=C(CN1c2ccccc2Sc2ccccc21)NNC(=O)Nc1cccc(Cl)c1 | 113* | 2 | -10 | 15 | -4 | -5 |
| Cc1ccc(S(=O)(=O)Nc2cc3c4c(c2)C(C)C(=O)N4CCC3)cc1 (stereo unspecified) | -7 | -6 | -6 | 1 | 7 | 8 |
| Cc1cccc(NS(=O)(=O)c2cc3c4c(c2)C(C)C(=O)N4CCC3)c1 (stereo unspecified) | 110* | 6 | -4 | 1 | -6 | 0 |
